Results published in ChEMBL document CHEMBL1138809, “A novel design strategy for stable metal complexes of nitrogen mustards as bioreductive prodrugs” (2004).
pIC50: −log10 of the molar value.

Test system: K562
Assay: Inhibitory concentration against human chronic myeloid leukemia cell line K562

ClCCN1CCN(CCCl)CCN(CCCl)CCN(CCCl)CC1
pIC50: 4.66
